Results from ChEMBL document CHEMBL1687781, “Comparative biochemical and computational study of the role of naturally occurring mutations at Ambler positions 104 and 170 in GES β-lactamases” (Antimicrob Agents Chemother, 2010).

How the values were obtained:
[1] = Ratio of Kcat to Km for Beta-lactamase GES-6 K104, S170 mutant
Outline: (§1)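 Purified GES enzymes, released by mild sonication in 20 mM Tris pH 8.0, then Q-Sepharose and S-Sepharose chromatography, >95% pure by SDS-PAGE, in 50 mM KPi pH 7.6. Protein measured by Bradford. β-Lactam substrates hydrolysed at various concentrations, 25°C, in 50 mM NaCl, 50 mM MOPS pH 7.0.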

[2] = Ratio of Kcat to Km for Beta-lactamase GES-5 E104, S170 mutant; outline: as §1
[3] = Activity of Beta-lactamase GES-1 E104, G170 mutant; outline: as §1
[4] = Ratio of Kcat to Km for Beta-lactamase GES-2 E104, N170 mutant; outline: as §1
[5] = Activity of Beta-lactamase GES-6 K104, S170 mutant; outline: as §1
[6] = Activity of Beta-lactamase GES-7 K104, G170 mutant; outline: as §1
[7] = Ratio of Kcat to Km for Beta-lactamase GES-1 E104, G170 mutant; outline: as §1
[8] = Activity of Beta-lactamase GES-2 E104, N170 mutant; outline: as §1
[9] = Ratio of Kcat to Km for Beta-lactamase GES-7 K104, G170 mutant; outline: as §1
[10] = Ratio of Kcat to Km for Beta-lactamase GES-13 K104, N170 mutant; outline: as §1
[11] = Activity of Beta-lactamase GES-5 E104, S170 mutant; outline: as §1

Compound `CC(=O)OCC1=C(C(=O)O)N2C(=O)[C@@H](NC(=O)Cc3cccs3)[C@H]2SC1` has a kcat/Km [1] of 4.81 µM⁻¹ s⁻¹, a kcat/Km [2] of 2.73 µM⁻¹ s⁻¹ and a Km [3] of 87.8 µM. It also gave a kcat [3] of 218 s⁻¹, a kcat/Km [4] of 0.05 µM⁻¹ s⁻¹ and a Km [5] of 54 µM. It also gave a kcat [5] of 260 s⁻¹, a Km [6] of 23.7 µM and a kcat [6] of 313 s⁻¹. For the same compound, the kcat/Km [7] was 2.48 µM⁻¹ s⁻¹, the Km [8] was 53.9 µM and the kcat [8] was 2.94 s⁻¹. It also gave a kcat/Km [9] of 13.2 µM⁻¹ s⁻¹, a kcat/Km [10] of 0.1 µM⁻¹ s⁻¹ and a Km [11] of 61.1 µM. For the same compound, the kcat [11] was 167 s⁻¹.
